US5684034A, “1H-indole-3-acetamide sPLA2 inhibitors” (Eli Lilly and Company, priority 1995, dated 1997)

Target: T1, recombinant human secreted phospholipase A2 (Homo sapiens, UniProt P14555)
T1 sequence (P14555 21-144): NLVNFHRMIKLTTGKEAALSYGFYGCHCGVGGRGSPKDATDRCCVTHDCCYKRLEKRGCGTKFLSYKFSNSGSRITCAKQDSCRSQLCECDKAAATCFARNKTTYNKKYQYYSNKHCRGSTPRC
Experiment: Human secreted phospholipase A2 inhibition test (chromogenic assay, diheptanoyl thio-PC substrate)
Type: biochemical
Conditions: pH 7.5, 40° C., 30 minutes, 405 nm; read-out: Inhibition of human secreted PLA2 IC50 ± mean deviation (3-5 tests)
Protocol: The following chromogenic assay procedure was used to identify and evaluate inhibitors of recombinant human secreted phospholipase A2. The assay described herein has been adapted for high volume screening using 96 well microtiter plates.
A measured volume of racetic dipheptanoyl thio PC supplied in chloroform at a concentration of 100 mg/ml is taken to dryness and redissolved in 10 millimolar TRITON X-100™ nonionic detergent aqueous solution. Reaction Buffer is added to the solution, then DTNB to give the Reaction Mixture.
The reaction mixture thus obtained contains 1 mM diheptanoly thio-PC substrate, 0.29 mm Triton X-100™ detergent, and 0.12 mm DTMB in a buffered aqueous solution at pH 7.5.
1. Add 0.2 ml reaction mixture to all wells;
2. Add 10 ul test compound (or solvent blank) to appropriate wells, mix 20 seconds:
3. Add 50 nanograms of sPLA2 (10 microliters) to appropriate wells;
4. incubate plate at 40° C. for 30 minutes;
All compounds were tested in triplicate. […] Each sample was titrated in triplicate and result values were averaged for plotting and calculation of IC50 values. […] Each IC50 value was determined three times.

- IC50: 400 ± 70 nM
Structure (SMILES): Cc1c(CC(N)=O)c2c(OCCCC(=O)O)cccc2n1Cc1ccccc1 [Example 38, 4-[[3-(2-Amino-2-oxoethyl)-2-methyl-1-(phenylmethyl)-1H-indol-4-yl]oxy]butanoic acid]
